Tested on: mu-opioid receptor (MOR)
Assay: GloSensor cAMP assay, single chain met-enkephalin-CapC-MOR
Conditions: HEK 293T, forskolin stimulated, 10 micromolar

## C=CCN1CC[C@]23c4c5ccc(O)c4O[C@H]2C(=O)CC[C@@]3(O)[C@H]1C5 [naloxone]
  Change of luminescence signal: sharp increase
